In ChEMBL document CHEMBL3108729, “Design, synthesis and anticonvulsant evaluation of N-(benzo[d]thiazol-2-ylcarbamoyl)-2-methyl-4-oxoquinazoline-3(4H)-carbothioamide derivatives: a hybrid pharmacophore approach” (Eur J Med Chem, 2013):

Test: in vivo
Details: albino, rat

NC(=O)N1c2ccccc2C=Cc2ccccc21 [CARBAMAZEPINE]
selectivity ratio at 1 h: 101
